Broadly, the IC50 is the midpoint of a concentration-inhibition curve.

By UniProt entry, the sequences of proteins in these tests, tags left out. Where a name states a change or a piece, a line headed by the entry shows the natural chain unless it says otherwise. Residues count along the entry.
UniProt A0A286XTF2, 1-366: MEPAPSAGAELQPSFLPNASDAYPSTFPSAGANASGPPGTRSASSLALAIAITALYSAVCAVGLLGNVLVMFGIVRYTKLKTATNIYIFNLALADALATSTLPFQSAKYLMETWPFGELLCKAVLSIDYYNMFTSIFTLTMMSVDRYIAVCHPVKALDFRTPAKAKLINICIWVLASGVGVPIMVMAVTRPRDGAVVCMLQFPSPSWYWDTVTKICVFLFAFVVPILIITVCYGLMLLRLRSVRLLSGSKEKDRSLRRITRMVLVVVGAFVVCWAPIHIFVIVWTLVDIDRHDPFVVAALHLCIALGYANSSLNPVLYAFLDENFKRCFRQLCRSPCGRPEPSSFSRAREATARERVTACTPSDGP

Values joined by “and” are separate entries in the source; they are usually repeats but may differ in a detail not shown here. Identical values can stand only once.

The assay has as its target T1, δ receptor (Cavia porcellus, UniProt A0A286XTF2).
T1 construct: Following incubation, the membranes were rapidly filtered under vacuum through glass fiber filters; from tissue
Briefly: δ opioid receptor binding, [3H]DPDPE. As to conditions: read-out: IC50, opioid binding, δ; guinea-pig cerebral cortex, [3H]DPDPE 1.5 nM, 120 minutes/22° C.

For DPDPE, the IC50 is 3.2 nM and 4.5 nM.

Values taken from patent US6780891B2, “Tramadol analogs and uses thereof” (Sepracor Inc., priority 2001, dated 2004).
